# Reference: patent US7786348B2, “Methods for producing pathogen-resistant plants with allene oxide synthase and divinyl ether synthase, and the amino acid and nucleotide sequences thereof” (BASF Plant Science GmbH, priority 2001, dated 2010)
# System: enzyme encoded by clone Pp364 (divinyl ether synthase)
# Assay: Photometric activity assay of Pp364
# Assay type: biochemical, Physcomitrella patens
# Details: drop in absorption at 234 nm; 20 μM substrate
row,Structure (SMILES),conversion of substrate by enzyme encoded by clone Pp364
1,"CC/C=C\C[C@@H](/C=C/C=C\CCCCCCCC(=O)O)OO [13-HPOTE, (13S,9Z,11E,15Z)-13-hydroperoxy-9,11,15-octadecatrienoic acid]",converted
2,CCCCC/C=C\C=C\C(CCCCCCCC(=O)O)OO (centres unmarked) [9-HPODE],converted
